Experiments:
human GIPR [1] = molecular target: T1, human GIPR (Homo sapiens, UniProt P48546); format: cell-based; design: host or cells: COS-7; details: Table 2; for EC50 / PEC50 GIPR: cAMP, COS-7 cells expressing human GIPR
T1 sequence (P48546 22-466): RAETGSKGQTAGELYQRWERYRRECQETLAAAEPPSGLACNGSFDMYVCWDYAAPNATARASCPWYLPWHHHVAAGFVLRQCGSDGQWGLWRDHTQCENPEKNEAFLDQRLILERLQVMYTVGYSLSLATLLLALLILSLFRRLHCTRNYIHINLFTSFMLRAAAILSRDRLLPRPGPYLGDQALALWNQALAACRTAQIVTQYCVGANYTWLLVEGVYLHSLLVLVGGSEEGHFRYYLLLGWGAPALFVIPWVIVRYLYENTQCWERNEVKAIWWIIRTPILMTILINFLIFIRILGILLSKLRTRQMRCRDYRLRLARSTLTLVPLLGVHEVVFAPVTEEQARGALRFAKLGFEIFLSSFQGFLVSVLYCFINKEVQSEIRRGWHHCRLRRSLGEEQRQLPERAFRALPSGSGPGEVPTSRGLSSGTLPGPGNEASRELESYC
Method: (§1) The next day the assay was initiated by washing with HEPES buffered saline (HBS) and followed by an incubation step with assay buffer (HBS added 1 mM isobutyl-1-methylxanthine (IBMX)) for 30 min at 37° C. The ligands were then added and incubated for an additional 30 min at 37° C. After ligand incubation, the HitHunter® CAMP assay (Eurofins DiscoverX, Fremont, […] USA) was carried out according to the manufacturer's instructions. Luminescence was measured by PerkinElmer™ EnVision 2014 Multilabel Reader (PerkinElmer, Waltham, MA). The potencies (EC50 values) were determined by nonlinear regression using GraphPad Prism 9 (San Diego, California, USA). Sigmoid curves were fitted logistically. The efficacies (Emax values) were determined by normalization to the highest concentration applied of the endogenous ligand for each receptor.

Amino acid sequences for entries named in this document (tags omitted). Residues count along the entry.
UniProt P43220, 24-463: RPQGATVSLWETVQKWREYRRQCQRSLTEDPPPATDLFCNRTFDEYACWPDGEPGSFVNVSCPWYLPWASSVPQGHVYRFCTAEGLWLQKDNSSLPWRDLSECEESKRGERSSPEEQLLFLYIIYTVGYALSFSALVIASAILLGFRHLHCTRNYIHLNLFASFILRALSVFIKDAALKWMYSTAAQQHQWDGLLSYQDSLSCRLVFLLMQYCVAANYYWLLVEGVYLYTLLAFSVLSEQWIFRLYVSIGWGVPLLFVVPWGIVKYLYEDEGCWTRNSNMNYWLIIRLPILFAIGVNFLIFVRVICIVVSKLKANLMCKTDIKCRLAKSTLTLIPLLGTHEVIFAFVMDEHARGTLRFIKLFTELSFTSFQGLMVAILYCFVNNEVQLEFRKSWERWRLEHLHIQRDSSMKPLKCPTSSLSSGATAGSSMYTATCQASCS

human GLP-1R = molecular target: T2, human GLP-1R (Homo sapiens, UniProt P43220); test: HitHunter cAMP assay in transiently transfected COS-7 cells, human GLP-1R; format: cell-based; details: cAMP, COS-7 cells expressing human GLP-1R; Table 3
T2 construct: host or cells: COS-7
Method: as §1

[2] = PK study in rats, half-life after SC or IV administration; format: in vivo, rat; details: Sprague Dawley rats, 100 nmol/kg SC, plasma LC-MS
Method: Sprague Dawley male or female rats, weight 200-300 g, n=3, were used for PK studies. Compounds were dissolved in 80% DMSO and further diluted/or directly dissolved in 50 mM phosphate buffer, pH 7.5+0.1% Haemaccel or casein. Dose given was 100 nmol/kg for all SC administrations and 20 nmol/kg or 100 nmol/kg for IV administrations. Blood samples were taken in the timeframe 0-72 H after compound administration. Plasma was obtained and stored at −20° C. until evaluation by LC-MS or LC-MS/MS.

human GLP-2R = molecular target: T3, human GLP-2R (Homo sapiens, UniProt O95838); test: HitHunter cAMP assay in transiently transfected COS-7 cells, human GLP-2R; format: cell-based; details: cAMP, COS-7 cells expressing human GLP-2R; Table 2;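 also: cells kept 30 min at 37 °C in buffer with 1 mM IBMX, then given ligand for another 30 min at 37 °C before cAMP readout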
T3 construct: host or cells: COS-7
T3 sequence (O95838 1-553): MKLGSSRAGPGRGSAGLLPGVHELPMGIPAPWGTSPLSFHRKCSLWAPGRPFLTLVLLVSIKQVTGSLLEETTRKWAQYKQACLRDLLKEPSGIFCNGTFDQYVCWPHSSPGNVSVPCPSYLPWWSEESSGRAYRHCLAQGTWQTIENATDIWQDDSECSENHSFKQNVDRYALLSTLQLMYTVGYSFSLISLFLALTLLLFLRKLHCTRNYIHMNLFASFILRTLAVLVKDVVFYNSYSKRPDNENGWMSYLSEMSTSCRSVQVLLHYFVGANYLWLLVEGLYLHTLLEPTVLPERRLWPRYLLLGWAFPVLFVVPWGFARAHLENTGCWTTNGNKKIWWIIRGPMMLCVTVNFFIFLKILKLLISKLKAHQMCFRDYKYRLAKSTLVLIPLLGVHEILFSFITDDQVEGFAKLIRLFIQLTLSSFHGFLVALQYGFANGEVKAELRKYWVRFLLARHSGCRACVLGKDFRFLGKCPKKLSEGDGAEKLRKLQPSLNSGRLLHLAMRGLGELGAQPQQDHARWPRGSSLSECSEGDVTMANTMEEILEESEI

human SNAP-GIPR = molecular target: T4, human SNAP-GIPR (Homo sapiens, UniProt P48546); format: cell-based; details: GIPR internalization, HEK293A SNAP-GIPR; NA = no activity
T4 construct: host or cells: HEK293A
T4 sequence (P48546 22-466): T1 sequence (P48546 22-466)

rat GIPR = molecular target: T5, rat GIPR (Rattus norvegicus, UniProt P43219); test: HitHunter cAMP assay in transiently transfected COS-7 cells, rat GIPR; format: cell-based; details: COS-7 cells expressing rat GIPR
T5 construct: expressed in transfected cells; host or cells: COS-7
T5 sequence (P43219 19-455): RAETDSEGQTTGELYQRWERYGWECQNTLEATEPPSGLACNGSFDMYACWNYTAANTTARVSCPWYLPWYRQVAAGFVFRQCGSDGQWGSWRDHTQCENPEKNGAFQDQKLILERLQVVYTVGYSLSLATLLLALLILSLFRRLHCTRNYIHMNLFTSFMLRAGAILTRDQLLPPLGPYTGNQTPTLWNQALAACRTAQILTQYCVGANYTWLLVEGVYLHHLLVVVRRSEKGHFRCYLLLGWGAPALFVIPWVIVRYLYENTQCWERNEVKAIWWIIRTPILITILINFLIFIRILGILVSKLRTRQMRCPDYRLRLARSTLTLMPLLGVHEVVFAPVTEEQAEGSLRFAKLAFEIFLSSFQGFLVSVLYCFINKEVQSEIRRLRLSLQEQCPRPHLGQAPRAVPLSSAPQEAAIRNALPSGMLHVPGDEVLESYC
Method: as §1

human GIPR [3] = molecular target: T1, human GIPR; format: cell-based; design: host or cells: HEK293; details: beta-arrestin 2 recruitment to human GIPR, HEK293; NA = no activity
rat GLP-2R = molecular target: T6, rat GLP-2R (Rattus norvegicus, UniProt Q9Z0W0); test: HitHunter cAMP assay in transiently transfected COS-7 cells, rat GLP-2R; format: cell-based; details: COS-7 cells expressing rat GLP-2R
T6 construct: expressed in transfected cells; host or cells: COS-7
T6 sequence (Q9Z0W0 1-550): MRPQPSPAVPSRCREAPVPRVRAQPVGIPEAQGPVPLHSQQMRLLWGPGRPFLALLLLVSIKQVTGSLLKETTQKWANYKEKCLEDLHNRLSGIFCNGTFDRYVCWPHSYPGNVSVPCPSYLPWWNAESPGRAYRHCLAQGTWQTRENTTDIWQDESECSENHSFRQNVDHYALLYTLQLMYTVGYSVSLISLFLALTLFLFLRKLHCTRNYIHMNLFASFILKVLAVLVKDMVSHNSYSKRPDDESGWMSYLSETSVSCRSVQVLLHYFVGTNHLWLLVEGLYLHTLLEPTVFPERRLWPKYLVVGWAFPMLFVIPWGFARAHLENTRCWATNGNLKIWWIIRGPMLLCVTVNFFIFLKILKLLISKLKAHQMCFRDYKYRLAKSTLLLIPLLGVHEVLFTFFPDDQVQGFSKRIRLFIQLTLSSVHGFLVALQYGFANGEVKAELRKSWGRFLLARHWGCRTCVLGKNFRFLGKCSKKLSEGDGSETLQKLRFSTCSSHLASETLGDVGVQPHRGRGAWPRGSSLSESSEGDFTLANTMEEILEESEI
Method: as §1

Substance	EC50 (human GIPR [1])	PEC50 GIPR (human GIPR [1])	logEC50 GLP-1R (human GLP-1R)	T1/2 (h) SC administration [2]	EC50 (human GLP-2R)	logEC50 GLP-2R (human GLP-2R)	EC50 (human GLP-1R)	pEC50 ± SD (human SNAP-GIPR)	rGIPR pEC50 (rat GIPR)	pEC50 ± SD (human GIPR [3])	rGLP-2R pEC50 (rat GLP-2R)	Efficacy GIPR (human GIPR [1]; Emax normalized to highest concentration of endogenous ligand)
(C16-diacid)H-Aib-DGTFISDYST-Aib-LDNLAARDFINWLIQTKITKNDWKHNITQ-OH [Compound no. 40]	1 nM	9.0	no activation	5.24 h	1.1 nM	9.0						
Ac-H-Aib-DGTFISDYS-K(γGlu-C16)-Aib-LDNLAARDFINWLIQTKITK-OH [Compound no. 36]	1 nM	9.0	11.0		4.5 nM	8.4	0.01 nM	6.7 ± 0.1				
H-Aib-DG-K(γGlu-C10)-FISDYST-Aib-LDNLAARDFINWLIQTKITK-OH [Compound no. 24]			no activation		3.5 nM	8.5		7.7 ± 0.1	8.6	9.1 ± 0.6	8.3	
H-Aib-DG-K(γGlu-C16 diacid)-FISDYST-Aib-LDNLAARDFINWLIQTKITK-OH [Compound no. 25]	0.106 nM	10.0	no activation		1.1 nM	9.0		7.2 ± 0.1	8.0	8.9 ± 0.6	8.3	
H-Aib-DGTFISDY-K(γGlu-C16)-T-Aib-LDALAARDFIEWLIQTKITK-OH [Compound no. 33]	0.355 nM	9.5	no activation		1.4 nM	8.9		7.0 ± 0.2	8.6	8.4 ± 0.9	8.5	
H-Aib-DGTFISDY-K(γGlu-C16)-TAib-LDNLAARDFINWLIQTKITKNDWKHNITQ-OH [Compound no. 37]	0.302 nM	9.5	no activation		0.7 nM	9.1		6.4 ± 0.3	8.8	8.0 ± 4.3	8.9	95
H-Aib-DGTFISDYS-K(γGlu-C16)-Aib-LDNLAARDFINWLIQTKITK-OH [Compound no. 35]	0.141 nM	9.9	10.0		0.9 nM	9.1	0.11 nM		8.3	8.5 ± 0.3	8.5	
